{"source": "paper PMC3437750", "about": "(Journal of medicinal chemistry, 2011)", "target": "T1, purified human PMI (Homo sapiens, UniProt P34949)", "T1 sequence (P34949 1-423)": "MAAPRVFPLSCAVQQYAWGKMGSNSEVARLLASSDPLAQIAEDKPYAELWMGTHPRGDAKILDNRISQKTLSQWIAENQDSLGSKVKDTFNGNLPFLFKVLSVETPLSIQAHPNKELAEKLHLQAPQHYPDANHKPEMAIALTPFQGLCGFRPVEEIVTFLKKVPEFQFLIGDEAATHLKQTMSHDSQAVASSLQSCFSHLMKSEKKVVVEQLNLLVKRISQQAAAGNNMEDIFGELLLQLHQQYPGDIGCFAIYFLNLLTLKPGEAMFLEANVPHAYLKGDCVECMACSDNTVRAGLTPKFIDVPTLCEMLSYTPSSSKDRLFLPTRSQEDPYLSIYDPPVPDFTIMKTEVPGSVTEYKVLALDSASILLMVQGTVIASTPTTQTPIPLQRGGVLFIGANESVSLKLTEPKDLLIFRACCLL", "type": "biochemical", "conditions": "PMM2 versus PMI inhibition", "data": [{"smiles": "Cc1ccc(C)c(-n2sc3cc(F)ccc3c2=O)c1", "note": "[Compound 17, 2-(2,5-Dimethylphenyl)-6-fluorobenzo[d]isothiazol-3(2H)-one]", "values": [{"measurement": "fold selectivity for PMI (over PMM2)", "result": "7–9 fold"}]}]}
